Amino acid sequences for entries named in this document (tags omitted). A change or cut given only in a name is not applied to a line headed by its entry.
UniProt O60674: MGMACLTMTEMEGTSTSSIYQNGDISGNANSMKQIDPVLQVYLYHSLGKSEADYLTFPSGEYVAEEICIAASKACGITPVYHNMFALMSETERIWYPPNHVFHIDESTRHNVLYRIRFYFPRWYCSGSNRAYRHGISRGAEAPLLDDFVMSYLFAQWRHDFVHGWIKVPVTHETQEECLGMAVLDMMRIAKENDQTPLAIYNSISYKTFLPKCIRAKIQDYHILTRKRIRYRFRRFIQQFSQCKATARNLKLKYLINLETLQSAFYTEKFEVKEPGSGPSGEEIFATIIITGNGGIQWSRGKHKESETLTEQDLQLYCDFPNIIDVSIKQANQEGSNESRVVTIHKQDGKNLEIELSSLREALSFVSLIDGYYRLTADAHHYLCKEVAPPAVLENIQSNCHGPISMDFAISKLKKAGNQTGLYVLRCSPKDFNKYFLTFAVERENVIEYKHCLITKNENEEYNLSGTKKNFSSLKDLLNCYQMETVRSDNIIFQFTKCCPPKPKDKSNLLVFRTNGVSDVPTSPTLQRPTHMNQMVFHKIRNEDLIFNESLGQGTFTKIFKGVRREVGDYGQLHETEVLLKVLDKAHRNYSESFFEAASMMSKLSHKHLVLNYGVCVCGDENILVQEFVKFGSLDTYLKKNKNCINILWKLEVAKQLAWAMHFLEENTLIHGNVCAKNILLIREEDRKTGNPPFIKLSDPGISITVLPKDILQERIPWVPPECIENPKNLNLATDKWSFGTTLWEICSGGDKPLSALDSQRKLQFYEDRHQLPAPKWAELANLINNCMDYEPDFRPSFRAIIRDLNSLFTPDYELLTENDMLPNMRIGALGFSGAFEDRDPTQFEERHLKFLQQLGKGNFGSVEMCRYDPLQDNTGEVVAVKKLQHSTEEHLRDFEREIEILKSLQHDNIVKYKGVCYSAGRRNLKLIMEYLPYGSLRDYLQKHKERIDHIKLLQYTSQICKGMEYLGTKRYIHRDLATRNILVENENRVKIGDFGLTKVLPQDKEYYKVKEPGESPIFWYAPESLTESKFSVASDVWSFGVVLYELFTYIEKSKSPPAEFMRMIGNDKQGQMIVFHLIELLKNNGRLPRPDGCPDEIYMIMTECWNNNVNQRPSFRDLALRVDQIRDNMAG

According to patent US10106559B2, “Substituted tetrahydrocarbazole and carbazole carboxamide compounds” (BRISTOL-MYERS SQUIBB COMPANY, priority 2013, dated 2018):

Key:
Jak2 tyrosine kinase = Jak2 tyrosine kinase (Homo sapiens (Human), UniProt O60674); assay: Jak2 Tyrosine Kinase Assay; assay type: biochemical; settings: selectivity: Jak2 IC50 divided by Btk IC50
[1] = system: CD69 expression on B cells in human whole blood; assay: Whole Blood Assay of BCR-Stimulated CD69 Expression on B Cells; assay type: cell-based; settings: B-cell

Row | SMILES | Ratio of Jak2/Btk IC50 values (Jak2 tyrosine kinase) | IC50 [1]
1 | [2H]C([2H])([2H])n1c(=O)n(-c2cccc(-c3c(Cl)cc(C(N)=O)c4[nH]c5c(c34)CC[C@H](C(C)(C)O)C5)c2C)c(=O)c2cccc(F)c21 (single isomer, unassigned) [Example 58] | 15000 | 240 nM
2 | Cc1c(-c2c(C#N)cc(C(N)=O)c3[nH]c4cc(C(C)(C)O)ccc4c23)cccc1-n1c(=O)c2cccc(F)c2n(C)c1=O (single isomer, unassigned) [Example 16] | 7000 | –
3 | Cc1c(-c2c(F)cc(C(N)=O)c3[nH]c4c(c23)CC[C@@H](C(C)(C)O)C4)cccc1-n1c(=O)c2cccc(F)c2n(C)c1=O (atropisomer, axis not shown) [Example 27, 6-Fluoro-5-(R)-(3-(S)-(8-fluoro-1-methyl-2,4-dioxo-1,2-dihydroquinazolin-3(4H)-yl)-2-methylphenyl)-2-(R)-(2-hydroxypropan-2-yl)-2,3,4,9-tetrahydro-1H-carbazole-8-carboxamide] | >910 | –
4 | Cc1c(-c2c(Cl)cc(C(N)=O)c3[nH]c4c(c23)CC[C@H](C(C)(C)O)C4)cccc1-n1c(=O)c2cccc(F)c2n(C)c1=O (atropisomer, axis not shown) [Example 26, 6-Chloro-5-(R)-(3-(S)-(8-fluoro-1-methyl-2,4-dioxo-1,2-dihydroquinazolin-3(4H)-yl)-2-methylphenyl)-2-(S)-(2-hydroxypropan-2-yl)-2,3,4,9-tetrahydro-1H-carbazole-8-carboxamide] | 6300 | –
